“And” between values parts separate entries of the source, which are not always exact repeats. Equal entries are not always repeated.
Biological target: MLCK (Homo sapiens, UniProt Q15746)
Assay: myosin light chain kinase phosphorylation of non-muscle myosin 2A (HPLC-mass spectrometry)
Format: biochemical

Question: How did the “% phosphorylated” value turn out when `O=C1NC(=S)N(c2cccc(Br)c2)C(=O)C1=Cc1ccco1` [SMIFH2] was run?
Answer: 55.4% and 70.4% and 81.2%

Source: PMC8121067, “The formin inhibitor SMIFH2 inhibits members of the myosin superfamily” (Journal of Cell Science, 2021)
